# Only a part is listed here, and it is no random draw. Results filed as inconclusive are left out. Calls of active or inactive are those of the source.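 Rule for the calls: active = inhibition above 50%; inconclusive = compound itself fluorescent, judged against control cell fluorescence; inactive = the rest.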
# Amino acid sequences for entries named in this document (tags omitted).
# UniProt P13612, whole entry, looked up: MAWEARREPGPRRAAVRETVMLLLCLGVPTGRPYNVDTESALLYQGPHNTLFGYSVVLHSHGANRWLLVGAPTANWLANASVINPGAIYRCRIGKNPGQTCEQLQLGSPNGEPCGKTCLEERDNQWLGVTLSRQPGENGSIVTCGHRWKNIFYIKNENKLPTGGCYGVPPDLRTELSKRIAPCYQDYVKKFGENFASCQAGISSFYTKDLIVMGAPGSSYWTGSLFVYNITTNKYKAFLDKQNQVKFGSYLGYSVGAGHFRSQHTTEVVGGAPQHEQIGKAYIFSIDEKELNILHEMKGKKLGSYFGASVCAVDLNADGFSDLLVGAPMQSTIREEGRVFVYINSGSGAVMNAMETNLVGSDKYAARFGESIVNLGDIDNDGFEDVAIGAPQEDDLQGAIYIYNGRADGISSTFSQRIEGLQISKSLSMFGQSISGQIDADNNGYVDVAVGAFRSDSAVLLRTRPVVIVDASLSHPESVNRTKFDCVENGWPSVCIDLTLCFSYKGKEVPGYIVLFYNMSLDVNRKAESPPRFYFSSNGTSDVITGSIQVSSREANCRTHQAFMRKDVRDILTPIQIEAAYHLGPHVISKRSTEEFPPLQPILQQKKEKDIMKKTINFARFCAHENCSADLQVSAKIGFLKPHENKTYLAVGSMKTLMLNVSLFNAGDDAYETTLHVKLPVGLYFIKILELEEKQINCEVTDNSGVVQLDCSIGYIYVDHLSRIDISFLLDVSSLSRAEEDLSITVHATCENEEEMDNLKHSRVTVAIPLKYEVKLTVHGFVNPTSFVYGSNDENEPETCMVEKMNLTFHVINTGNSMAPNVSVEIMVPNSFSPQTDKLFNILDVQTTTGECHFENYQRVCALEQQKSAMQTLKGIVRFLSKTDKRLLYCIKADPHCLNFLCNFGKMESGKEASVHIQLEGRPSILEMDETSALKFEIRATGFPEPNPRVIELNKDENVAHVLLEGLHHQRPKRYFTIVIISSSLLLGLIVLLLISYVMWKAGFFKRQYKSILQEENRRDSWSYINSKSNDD
# Biological target: Integrin alpha-4 (Homo sapiens) (UniProt P13612)
# Experiment: inhibitors of LDV-FITC binding to Mn2+-activated VLA-4, primary screen, Jurkat cells (AID 529);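 note: 0% = Mn2+ stimulated cells lacking compound and 100% = ligand binding without Mn2+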
# Conditions: LDV-FITC binding with Mn2+, flow cytometry, hits give high values, screened at 10 µM (by protocol), 100% = Mn2+-driven binding gain fully reversed
row,Structure (SMILES),inhibition
1,O=P(Nc1nccs1)(c1ccccc1)c1ccccc1,inactive: 2%
2,Cc1nn(-c2ccccc2)c2c1P(=O)(N1CCOCC1)N(C)C(c1ccccc1)=N2 (stereo unspecified),inactive: -9.5%
3,Clc1n[nH]nc1-c1nn[nH][15n]1,inactive: 1%
4,CCOP1(=S)c2c(C)nn(CCC#N)c2N=C(c2ccccc2F)N1C (stereo unspecified),inactive: -12%
5,COP1(=S)c2c(C)nn(CCC#N)c2N=C(c2ccc(F)cc2)N1C (stereo unspecified),inactive: 3%
6,O=C(COc1ccccc1)OC1CN2CCC1CC2 (stereo unspecified),inactive: 4%
